# Source: patent US8748491B2, “Dietary and pharmaceutical compositions containing tricyclic diterpenes and their derivatives and their uses” (priority 2006, dated 2014)
# System: mouse
# Experiment: Porsolt's forced swim test (FST)
# Type: in vivo
# Conditions: 10 mg/kg i.p., −30 min
# Description: Mice were individually placed in cylinders (24.5 cm height, 19.5 cm internal diameter) containing 13.5 cm depth of water (22±0.5° C.) for a period of 6 minutes, behavioural parameters of interest being analysed during the final 4 minutes of the test, since the first 2 minutes include vigorous activity. Six cylinders were placed in a Perspex box, thus enabling six mice to be tested simultaneously.
# Automatic monitoring of swim tests was enabled through the use of VideoMot2 software (TSE Technical and Scientific Equipment GmbH, Bad Homburg, Germany). All to experiments were observed via a black and white CCD camera. The rest:locomotion and stop:start thresholds, as determined by setting parameters in the software programme, determine the number of pixels which must change for a movement to be registered, enabling the software to determine whether a mouse is swimming or resting. The parameters which are automatically recorded include: rest time and locomotion time (ms), % rest and % locomotion, distance travelled (cm), speed of travel (cm/s) and number of stops.
# Data were analysed by comparing treated groups with the untreated control group using Fisher's PLSD (StatView, SAS Institute Inc., Cary, N.C., USA)
smiles,measurement,value
"CNCCC(Oc1ccc(C(F)(F)F)cc1)c1ccccc1 (stereo not shown) [Fluoxetine, fluoxetine, reference compound]",Duration of immobility (% change from control),−41%
